Measured values published in ChEMBL document CHEMBL1770117 (Bioorg Med Chem Lett, 2011).

Amino acid sequences for entries named in this document (tags omitted).
UniProt P41594, whole entry, looked up: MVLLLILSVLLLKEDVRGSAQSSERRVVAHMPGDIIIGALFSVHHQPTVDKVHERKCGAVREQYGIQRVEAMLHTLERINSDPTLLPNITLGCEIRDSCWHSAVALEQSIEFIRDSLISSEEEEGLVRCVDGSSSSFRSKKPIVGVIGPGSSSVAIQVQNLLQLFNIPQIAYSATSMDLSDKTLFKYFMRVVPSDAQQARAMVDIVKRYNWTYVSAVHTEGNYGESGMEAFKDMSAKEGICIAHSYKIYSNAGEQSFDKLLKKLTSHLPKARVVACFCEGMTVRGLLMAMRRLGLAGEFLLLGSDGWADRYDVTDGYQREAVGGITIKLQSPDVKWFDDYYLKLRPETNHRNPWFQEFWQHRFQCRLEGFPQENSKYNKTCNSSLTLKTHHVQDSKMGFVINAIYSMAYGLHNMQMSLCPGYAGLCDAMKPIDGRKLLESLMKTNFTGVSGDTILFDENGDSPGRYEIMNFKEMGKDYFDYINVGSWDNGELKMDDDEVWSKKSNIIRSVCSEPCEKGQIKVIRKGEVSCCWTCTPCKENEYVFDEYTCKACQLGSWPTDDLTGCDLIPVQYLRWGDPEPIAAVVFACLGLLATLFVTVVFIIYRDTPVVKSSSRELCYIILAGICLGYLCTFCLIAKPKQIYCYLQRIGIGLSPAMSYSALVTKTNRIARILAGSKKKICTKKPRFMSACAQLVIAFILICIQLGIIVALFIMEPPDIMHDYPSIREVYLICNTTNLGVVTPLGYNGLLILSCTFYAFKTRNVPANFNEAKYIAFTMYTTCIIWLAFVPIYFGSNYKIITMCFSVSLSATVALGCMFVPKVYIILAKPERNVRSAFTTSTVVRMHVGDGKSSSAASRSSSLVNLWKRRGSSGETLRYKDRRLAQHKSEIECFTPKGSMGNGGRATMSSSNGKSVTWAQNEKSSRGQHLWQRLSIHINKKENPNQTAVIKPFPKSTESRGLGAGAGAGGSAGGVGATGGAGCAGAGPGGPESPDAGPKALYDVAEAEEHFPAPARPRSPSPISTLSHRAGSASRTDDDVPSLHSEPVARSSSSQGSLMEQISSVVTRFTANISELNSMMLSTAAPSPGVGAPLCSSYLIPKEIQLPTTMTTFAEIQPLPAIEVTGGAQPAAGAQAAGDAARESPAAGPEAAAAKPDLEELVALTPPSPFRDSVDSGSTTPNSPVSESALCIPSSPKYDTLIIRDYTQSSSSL
UniProt P31424, whole entry, looked up: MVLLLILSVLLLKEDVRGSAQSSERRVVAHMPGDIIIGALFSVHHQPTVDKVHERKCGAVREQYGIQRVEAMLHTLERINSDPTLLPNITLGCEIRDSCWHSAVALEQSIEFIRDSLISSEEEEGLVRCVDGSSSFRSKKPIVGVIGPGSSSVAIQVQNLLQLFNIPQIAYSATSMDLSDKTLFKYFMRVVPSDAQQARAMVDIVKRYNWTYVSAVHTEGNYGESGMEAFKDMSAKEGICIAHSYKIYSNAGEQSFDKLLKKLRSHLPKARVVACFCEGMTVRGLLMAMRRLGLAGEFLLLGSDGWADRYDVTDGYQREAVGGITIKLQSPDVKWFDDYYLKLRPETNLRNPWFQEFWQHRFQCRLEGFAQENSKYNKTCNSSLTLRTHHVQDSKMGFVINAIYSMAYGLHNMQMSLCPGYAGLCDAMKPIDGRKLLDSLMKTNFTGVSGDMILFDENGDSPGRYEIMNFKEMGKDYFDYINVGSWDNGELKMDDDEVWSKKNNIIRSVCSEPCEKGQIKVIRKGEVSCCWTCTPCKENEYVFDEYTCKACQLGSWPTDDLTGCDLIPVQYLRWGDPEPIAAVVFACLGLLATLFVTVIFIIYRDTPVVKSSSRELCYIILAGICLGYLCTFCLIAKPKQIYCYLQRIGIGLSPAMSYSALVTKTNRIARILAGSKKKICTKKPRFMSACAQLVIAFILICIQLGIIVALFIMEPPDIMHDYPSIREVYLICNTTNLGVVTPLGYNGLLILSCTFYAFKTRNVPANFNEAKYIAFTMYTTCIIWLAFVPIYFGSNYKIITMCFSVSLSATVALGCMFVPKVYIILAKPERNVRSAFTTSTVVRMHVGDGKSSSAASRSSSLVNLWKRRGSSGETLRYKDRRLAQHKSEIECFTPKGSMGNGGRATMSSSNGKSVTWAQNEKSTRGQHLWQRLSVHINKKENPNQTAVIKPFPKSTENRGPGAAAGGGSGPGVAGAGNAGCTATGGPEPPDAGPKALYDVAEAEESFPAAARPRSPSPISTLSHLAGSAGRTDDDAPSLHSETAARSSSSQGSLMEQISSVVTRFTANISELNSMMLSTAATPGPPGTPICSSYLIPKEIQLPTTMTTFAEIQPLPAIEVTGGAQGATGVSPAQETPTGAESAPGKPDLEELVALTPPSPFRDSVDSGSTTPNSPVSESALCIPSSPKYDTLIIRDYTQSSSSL

What was measured:
[1] = target: Metabotropic glutamate receptor 5 (Homo sapiens) (UniProt P41594); experiment: Positive allosteric modulator activity at mGluR5 receptor expressed in HEK293A cells assessed as maximum glutamate-induced response preincubated for 140 secs before glutamate challenge by calcium fluorescence assay; type: functional, cell-based; conditions: HEK293-A
[2] = target: Metabotropic glutamate receptor 5 (Rattus norvegicus, UniProt P31424); experiment: Positive allosteric modulator activity at mGluR5 receptor expressed in HEK293A cells assessed as effect on glutamate-induced calcium flux preincubated for 140 secs before glutamate challenge by calcium fluorescence assay; type: functional, cell-based, HEK293-A

Activity [1]: 8% | pEC50 [2]: 5.00
Compound: O=C(C1CCCCC1)N1CCCC1c1nc(-c2cccc(F)c2)no1 (configuration not stated)

pEC50: −log10 of the molar value.
